{"sequences": {"note": "By UniProt entry, the sequences of proteins in these tests, tags left out. Where a name states a change or a piece, a line headed by the entry shows the natural chain unless it says otherwise.", "UniProt P02554": "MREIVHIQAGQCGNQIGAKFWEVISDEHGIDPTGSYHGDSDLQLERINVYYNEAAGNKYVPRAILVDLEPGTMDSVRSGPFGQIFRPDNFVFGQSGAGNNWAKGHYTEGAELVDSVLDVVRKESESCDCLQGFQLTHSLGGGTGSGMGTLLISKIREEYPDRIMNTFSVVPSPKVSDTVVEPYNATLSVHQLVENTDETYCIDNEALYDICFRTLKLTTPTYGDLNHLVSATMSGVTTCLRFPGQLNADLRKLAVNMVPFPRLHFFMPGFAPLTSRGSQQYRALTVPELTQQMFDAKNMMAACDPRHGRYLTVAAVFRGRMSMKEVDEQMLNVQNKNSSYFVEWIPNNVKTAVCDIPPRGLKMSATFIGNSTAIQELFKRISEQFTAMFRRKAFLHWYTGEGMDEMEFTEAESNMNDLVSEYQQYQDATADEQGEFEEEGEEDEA", "UniProt P02550": "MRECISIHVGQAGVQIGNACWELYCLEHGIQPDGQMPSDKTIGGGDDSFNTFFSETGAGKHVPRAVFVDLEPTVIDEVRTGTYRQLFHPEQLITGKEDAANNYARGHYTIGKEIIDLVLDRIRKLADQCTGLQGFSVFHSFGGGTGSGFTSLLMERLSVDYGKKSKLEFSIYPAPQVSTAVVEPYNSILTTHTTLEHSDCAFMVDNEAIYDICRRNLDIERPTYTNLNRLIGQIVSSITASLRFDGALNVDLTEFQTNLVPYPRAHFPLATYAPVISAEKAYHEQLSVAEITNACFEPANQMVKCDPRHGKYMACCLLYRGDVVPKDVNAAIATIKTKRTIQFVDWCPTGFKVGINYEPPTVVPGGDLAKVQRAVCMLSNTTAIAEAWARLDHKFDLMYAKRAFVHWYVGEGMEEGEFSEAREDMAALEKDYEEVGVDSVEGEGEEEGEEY"}, "source": "ChEMBL document CHEMBL3797118", "about": "“New Colchicine-Derived Triazoles and Their Influence on Cytotoxicity and Microtubule Morphology” (ACS Med Chem Lett, 2016)", "target": "Tubulin (Sus scrofa, UniProt P02554+P02550)", "test": "Inhibition of porcine brain tubulin polymerization measured every 1 min for 60 mins by microplate reader analysis", "data": [{"smiles": "COc1cc2c(c(OC)c1OC)-c1ccc(OC)c(=O)cc1[C@@H](n1cc(COC(=O)[C@H](Cc3ccccc3)NC(=O)OC(C)(C)C)nn1)CC2", "values": [{"measurement": "IC50", "value": 3.2, "unit": "nM"}]}, {"smiles": "COc1cc2c(c(OC)c1OC)-c1ccc(OC)c(=O)cc1[C@@H](n1cc(COC(=O)CCNC(=O)OC(C)(C)C)nn1)CC2", "values": [{"measurement": "IC50", "value": 2.44, "unit": "nM"}]}, {"smiles": "COc1cc2c(c(OC)c1OC)-c1ccc(OC)c(=O)cc1[C@@H](n1cc(CCC(=O)OCc3ccc(F)cc3)nn1)CC2", "values": [{"measurement": "IC50", "value": 2.1, "unit": "nM"}]}]}
